Experimental findings from US6936585B2, “Corticotropin releasing factor 2 receptor agonists” (priority 2002, dated 2005) are described below.

In assay [1] the target is T1, CRF1R (Homo sapiens, UniProt P34998).
T1 sequence (P34998 24-415): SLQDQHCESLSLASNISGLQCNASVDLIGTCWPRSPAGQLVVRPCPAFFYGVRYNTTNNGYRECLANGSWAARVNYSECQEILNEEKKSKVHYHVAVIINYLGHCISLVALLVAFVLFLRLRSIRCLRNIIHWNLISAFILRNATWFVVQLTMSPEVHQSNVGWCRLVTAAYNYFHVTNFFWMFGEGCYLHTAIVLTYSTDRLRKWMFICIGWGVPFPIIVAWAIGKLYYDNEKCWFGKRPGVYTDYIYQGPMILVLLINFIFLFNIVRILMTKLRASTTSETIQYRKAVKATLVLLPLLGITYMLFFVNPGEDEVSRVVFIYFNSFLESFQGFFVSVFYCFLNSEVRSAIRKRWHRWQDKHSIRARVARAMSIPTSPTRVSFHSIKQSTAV
The experiment in a line: CRF1R agonist activation (EC50 / Emax), called comparative CRF binding. The class given is cell-based. The conditions noted are these: for Emax: read-out: CRF1R Emax. Put shortly: (§1)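 Cells expressing human CRF1R or CRF2R are exposed to peptide or vehicle control, and receptor activation is read as cAMP induction, measured in cell lysates or via a CRE-linked reporter gene.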

Assay [2] concerns the target T2, CRF2R (Homo sapiens, UniProt Q13324).
T2 sequence (Q13324 1-411): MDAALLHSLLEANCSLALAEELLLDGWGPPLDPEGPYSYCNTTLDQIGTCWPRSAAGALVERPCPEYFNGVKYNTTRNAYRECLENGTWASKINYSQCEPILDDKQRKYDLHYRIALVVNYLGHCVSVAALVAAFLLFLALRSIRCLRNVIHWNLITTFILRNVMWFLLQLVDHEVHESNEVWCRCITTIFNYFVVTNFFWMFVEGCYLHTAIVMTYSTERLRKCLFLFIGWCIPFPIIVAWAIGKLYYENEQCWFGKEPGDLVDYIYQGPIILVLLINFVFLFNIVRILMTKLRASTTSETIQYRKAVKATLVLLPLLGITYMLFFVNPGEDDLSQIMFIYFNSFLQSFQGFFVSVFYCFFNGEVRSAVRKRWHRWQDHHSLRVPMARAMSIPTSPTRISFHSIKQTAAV
Put plainly: CRF2R agonist activation (EC50 / Emax), called comparative CRF binding. The class given is cell-based. To be noted: for Emax: read-out: CRF2R Emax. The method in brief:
as §1

Each structure is given as a SMILES string.

With `CC[C@H](C)[C@H](NC(=O)[C@@H](NC(=O)[C@H](C)NC(=O)[C@H](CC(C)C)NC(=O)[C@H](CC(C)C)NC(=O)[C@H](CC(C)C)NC(=O)[C@H](C)NC(=O)[C@H](CC(N)=O)NC(=O)[C@H](CC(N)=O)NC(=O)[C@H](C)NC(=O)[C@H](C)NC(=O)[C@H](CCC(N)=O)NC(=O)[C@H](CCC(N)=O)NC(=O)[C@H](CCCCN)NC(=O)[C@H](CCC(=O)O)NC(=O)[C@H](CCCCN)NC(=O)[C@H](CCC(=O)O)NC(=O)[C@H](CCC(N)=O)NC(=O)[C@H](CCCCN)NC(=O)[C@H](CCC(=O)O)NC(=O)[C@@H](NC(=O)[C@H](CCC(=O)O)NC(=O)[C@@H](NC(=O)[C@@H](NC(=O)[C@H](CCCCN)NC(=O)[C@H](CCCNC(=N)N)NC(=O)[C@H](CC(C)C)NC(=O)[C@H](CC(C)C)NC(=O)[C@H](Cc1ccccc1)NC(=O)[C@@H](NC(=O)[C@@H]1CCCN1C(=O)[C@H](CC(C)C)NC(=O)[C@H](CC(=O)O)NC(=O)[C@@H](NC(=O)[C@H](CO)NC(=O)[C@@H](NC(=O)[C@@H]1CCCN1C(=O)[C@@H]1CCCN1C(=O)CNC(=O)[C@@H]1CCC(=O)N1)[C@@H](C)CC)[C@@H](C)CC)[C@@H](C)CC)C(C)C)[C@@H](C)CC)[C@@H](C)CC)[C@@H](C)O)C(N)=O` [compound 280], the Emax (in general, the maximal effect, on the per cent scale that the assay sets) in assay [1] was found to be 11.8%; in assay [2], 82.3%.
`CC[C@H](C)[C@H](NC(=O)[C@@H](NC(=O)[C@H](CC(=O)O)NC(=O)[C@H](CC(C)C)NC(=O)[C@H](CC(C)C)NC(=O)[C@H](CC(C)C)NC(=O)[C@H](CCCNC(=N)N)NC(=O)[C@H](CC(N)=O)NC(=O)[C@H](CC(N)=O)NC(=O)[C@H](C)NC(=O)[C@H](C)NC(=O)[C@H](CCC(N)=O)NC(=O)[C@H](CCC(N)=O)NC(=O)[C@H](CCCCN)NC(=O)[C@H](CCC(=O)O)NC(=O)[C@H](CCCCN)NC(=O)[C@H](CCC(=O)O)NC(=O)[C@H](CCC(N)=O)NC(=O)[C@H](CCCCN)NC(=O)[C@H](CCC(=O)O)NC(=O)[C@@H](NC(=O)[C@H](CCC(=O)O)NC(=O)[C@@H](NC(=O)[C@H](CCSC)NC(=O)[C@H](CCCCN)NC(=O)[C@H](CCCNC(=N)N)NC(=O)[C@H](CC(C)C)NC(=O)[C@H](CC(C)C)NC(=O)[C@H](Cc1c[nH]c2ccccc12)NC(=O)[C@@H](NC(=O)[C@@H]1CCCN1C(=O)[C@H](CC(C)C)NC(=O)[C@H](CC(=O)O)NC(=O)[C@@H](NC(=O)[C@H](CO)NC(=O)[C@@H](NC(=O)[C@@H]1CCCN1C(=O)[C@@H]1CCCN1C(=O)CNC(=O)[C@@H]1CCC(=O)N1)[C@@H](C)CC)[C@@H](C)CC)[C@@H](C)CC)[C@@H](C)CC)[C@@H](C)CC)[C@@H](C)O)C(N)=O` [compound 192]: the Emax in assay [1] is 99%; in assay [2], 97%.
In the same order, the values of `CC[C@H](C)[C@H](NC(=O)[C@@H](NC(=O)[C@H](CC(=O)O)NC(=O)[C@H](CC(C)C)NC(=O)[C@H](CC(C)C)NC(=O)[C@H](CC(C)C)NC(=O)[C@H](CCCNC(=N)N)NC(=O)[C@H](CC(N)=O)NC(=O)[C@@H](NC(=O)[C@@H](NC(=O)[C@H](C)NC(=O)[C@H](CCC(N)=O)NC(=O)[C@H](CCC(N)=O)NC(=O)[C@H](CCCCN)NC(=O)[C@H](CCC(=O)O)NC(=O)[C@H](CCCCN)NC(=O)[C@H](CCC(=O)O)NC(=O)[C@H](CCC(N)=O)NC(=O)[C@H](CCCCN)NC(=O)[C@H](CCC(=O)O)NC(=O)[C@@H](NC(=O)[C@H](CCC(=O)O)NC(=O)[C@@H](NC(=O)[C@H](CCSC)NC(=O)[C@H](CCCCN)NC(=O)[C@H](CCCNC(=N)N)NC(=O)[C@H](CC(C)C)NC(=O)[C@H](CC(C)C)NC(=O)[C@H](CCC(N)=O)NC(=O)[C@H](Cc1ccccc1)NC(=O)[C@@H]1CCCN1C(=O)[C@H](CC(C)C)NC(=O)[C@H](CC(=O)O)NC(=O)[C@@H](NC(=O)[C@H](CO)NC(=O)[C@@H](NC(=O)[C@@H]1CCCN1C(=O)[C@@H]1CCCN1C(=O)CNC(=O)[C@@H]1CCC(=O)N1)[C@@H](C)CC)[C@@H](C)CC)[C@@H](C)CC)[C@@H](C)CC)[C@@H](C)O)[C@@H](C)O)[C@@H](C)O)C(N)=O` [compound 13] are 69% and 79%.
As for `CC[C@H](C)[C@H](NC(=O)[C@@H](NC(=O)[C@H](CC(=O)O)NC(=O)[C@H](CC(C)C)NC(=O)[C@H](CC(C)C)NC(=O)[C@H](CC(C)C)NC(=O)[C@H](CCCNC(=N)N)NC(=O)[C@H](CC(N)=O)NC(=O)[C@H](CC(N)=O)NC(=O)[C@H](C)NC(=O)[C@H](C)NC(=O)[C@H](CCC(N)=O)NC(=O)[C@H](CCC(N)=O)NC(=O)[C@H](CCCCN)NC(=O)[C@H](CCC(=O)O)NC(=O)[C@H](CCCCN)NC(=O)[C@H](CCC(=O)O)NC(=O)[C@H](CCC(N)=O)NC(=O)[C@H](CCCCN)NC(=O)[C@H](CCC(=O)O)NC(=O)[C@@H](NC(=O)[C@H](CCC(=O)O)NC(=O)[C@@H](NC(=O)[C@H](CCSC)NC(=O)[C@H](CCCCN)NC(=O)[C@H](CCCNC(=N)N)NC(=O)[C@H](CC(C)C)NC(=O)[C@H](CC(C)C)NC(=O)[C@H](Cc1ccc(O)cc1)NC(=O)CNC(=O)[C@@H]1CCCN1C(=O)[C@H](CC(C)C)NC(=O)[C@H](CC(=O)O)NC(=O)[C@@H](NC(=O)[C@H](CO)NC(=O)[C@@H](NC(=O)[C@@H]1CCCN1C(=O)[C@@H]1CCCN1C(=O)CNC(=O)[C@@H]1CCC(=O)N1)[C@@H](C)CC)[C@@H](C)CC)[C@@H](C)CC)[C@@H](C)CC)[C@@H](C)O)C(N)=O` [compound 63], the EC50 (commonly the midpoint of the concentration-response curve) in assay [1] (CRF1R EC50) was found to be 73.2 nM; in assay [2], 67.3 nM. The Emax in assay [1] amounted to 34%; in assay [2], 100%.
For `CC[C@H](C)[C@H](NC(=O)[C@@H](NC(=O)[C@H](CC(=O)O)NC(=O)[C@H](CC(C)C)NC(=O)[C@H](CC(C)C)NC(=O)[C@H](CC(C)C)NC(=O)[C@H](CCCNC(=N)N)NC(=O)[C@H](CC(N)=O)NC(=O)[C@H](CC(N)=O)NC(=O)[C@H](C)NC(=O)[C@H](C)NC(=O)[C@H](CCC(N)=O)NC(=O)[C@H](CCC(N)=O)NC(=O)[C@H](CCCCN)NC(=O)[C@H](CCC(=O)O)NC(=O)[C@H](CCCCN)NC(=O)[C@H](CCC(=O)O)NC(=O)[C@H](CCC(N)=O)NC(=O)[C@H](CCCCN)NC(=O)[C@H](CCC(=O)O)NC(=O)[C@@H](NC(=O)[C@H](CCC(=O)O)NC(=O)[C@@H](NC(=O)[C@H](CCSC)NC(=O)[C@H](CCCCN)NC(=O)[C@H](CCCNC(=N)N)NC(=O)[C@H](CC(C)C)NC(=O)[C@H](CC(C)C)NC(=O)[C@H](Cc1ccc(O)cc1)NC(=O)[C@@H](NC(=O)[C@@H]1CCCN1C(=O)[C@H](CC(C)C)NC(=O)[C@H](CC(=O)O)NC(=O)[C@@H](NC(=O)[C@H](CO)NC(=O)[C@@H](NC(=O)[C@@H]1CCCN1C(=O)[C@@H]1CCCN1C(=O)CNC(=O)[C@@H]1CCC(=O)N1)[C@@H](C)CC)[C@@H](C)CC)C(C)C)[C@@H](C)CC)[C@@H](C)CC)[C@@H](C)O)C(N)=O` [compound 39], the values for the Emax in assay [1] and in assay [2] were 63% and 94%, respectively.
